Reference: ChEMBL document CHEMBL1144993, “Imidazoline binding sites (IBS) profile modulation: key role of the bridge in determining I1-IBS or I2-IBS selectivity within a series of 2-phenoxymethylimidazoline analogues” (J Med Chem, 2003)

Protein sequences, listed by entry. Tags and fused reporters are not part of them. Lines headed by an entry give the natural chain unless they say otherwise; changes in a name come on top.
UniProt Q9Y2I1: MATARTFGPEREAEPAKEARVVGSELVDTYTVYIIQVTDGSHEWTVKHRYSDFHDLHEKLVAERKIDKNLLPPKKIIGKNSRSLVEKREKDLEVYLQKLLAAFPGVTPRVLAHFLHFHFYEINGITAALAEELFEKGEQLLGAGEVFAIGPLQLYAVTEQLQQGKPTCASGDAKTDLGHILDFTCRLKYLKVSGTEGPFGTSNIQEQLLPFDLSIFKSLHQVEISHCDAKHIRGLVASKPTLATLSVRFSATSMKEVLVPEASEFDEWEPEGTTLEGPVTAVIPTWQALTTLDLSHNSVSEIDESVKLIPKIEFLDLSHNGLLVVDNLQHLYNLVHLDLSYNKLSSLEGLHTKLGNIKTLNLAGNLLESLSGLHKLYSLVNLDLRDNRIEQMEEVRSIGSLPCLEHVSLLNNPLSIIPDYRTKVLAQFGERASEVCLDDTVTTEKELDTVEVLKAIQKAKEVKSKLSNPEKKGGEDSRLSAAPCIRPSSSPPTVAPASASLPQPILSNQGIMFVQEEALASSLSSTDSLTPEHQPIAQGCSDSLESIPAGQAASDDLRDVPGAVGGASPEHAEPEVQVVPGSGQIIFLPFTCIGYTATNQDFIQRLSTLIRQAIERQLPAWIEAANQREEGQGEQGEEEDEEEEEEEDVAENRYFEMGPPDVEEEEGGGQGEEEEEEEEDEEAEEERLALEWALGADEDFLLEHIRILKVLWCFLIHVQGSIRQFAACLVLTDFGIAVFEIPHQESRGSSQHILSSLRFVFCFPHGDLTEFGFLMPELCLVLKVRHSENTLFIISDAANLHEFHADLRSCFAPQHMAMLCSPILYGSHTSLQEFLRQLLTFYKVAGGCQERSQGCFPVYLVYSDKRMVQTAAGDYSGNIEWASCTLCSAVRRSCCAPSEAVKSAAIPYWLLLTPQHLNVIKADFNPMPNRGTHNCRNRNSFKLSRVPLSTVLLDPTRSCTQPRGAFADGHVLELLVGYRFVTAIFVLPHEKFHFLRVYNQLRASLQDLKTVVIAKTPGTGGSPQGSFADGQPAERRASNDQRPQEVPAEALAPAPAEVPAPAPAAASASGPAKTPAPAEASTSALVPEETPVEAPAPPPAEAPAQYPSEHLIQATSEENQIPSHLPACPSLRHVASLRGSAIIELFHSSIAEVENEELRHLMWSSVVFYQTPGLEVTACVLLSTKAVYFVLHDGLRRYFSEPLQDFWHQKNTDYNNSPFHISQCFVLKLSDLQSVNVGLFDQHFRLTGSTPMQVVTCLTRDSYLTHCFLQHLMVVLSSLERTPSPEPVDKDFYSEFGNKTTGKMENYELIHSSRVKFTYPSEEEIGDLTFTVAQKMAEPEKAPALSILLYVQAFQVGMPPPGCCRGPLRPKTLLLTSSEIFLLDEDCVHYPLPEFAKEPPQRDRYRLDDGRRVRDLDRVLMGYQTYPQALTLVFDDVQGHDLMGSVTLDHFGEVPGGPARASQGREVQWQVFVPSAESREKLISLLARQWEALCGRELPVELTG

Legend:
Nischarin (Homo sapiens) [1] = target: Nischarin (Homo sapiens) (UniProt Q9Y2I1); assay: Eudismic ratio of (R)-(-)-8 to (S)-(+)-8 for I1-Imidazoline binding site
Nischarin (Homo sapiens) [2] = target: Nischarin (Homo sapiens) (UniProt Q9Y2I1); assay: Eudismic ratio of (1S,2S)-(+)-6 to (1R,2R)-(-)-6 for I1-Imidazoline binding site

Ratio (Nischarin (Homo sapiens) [1]) | Structure (SMILES) | Ratio (Nischarin (Homo sapiens) [2])
12 | C[C@H](CC1=NCCN1)c1ccccc1 | 
 | c1ccc([C@H]2C[C@@H]2C2=NCCN2)cc1 | 29
